Experimental data published in patent US20250388583A1, “COMPOUNDS AND METHOD FOR PKMYT1 INHIBITION” (Engine Biosciences Pte. Ltd., priority 2022, published 2025).

Chains of the proteins cited; added tags and fusions are not shown.
UniProt P06239, whole entry: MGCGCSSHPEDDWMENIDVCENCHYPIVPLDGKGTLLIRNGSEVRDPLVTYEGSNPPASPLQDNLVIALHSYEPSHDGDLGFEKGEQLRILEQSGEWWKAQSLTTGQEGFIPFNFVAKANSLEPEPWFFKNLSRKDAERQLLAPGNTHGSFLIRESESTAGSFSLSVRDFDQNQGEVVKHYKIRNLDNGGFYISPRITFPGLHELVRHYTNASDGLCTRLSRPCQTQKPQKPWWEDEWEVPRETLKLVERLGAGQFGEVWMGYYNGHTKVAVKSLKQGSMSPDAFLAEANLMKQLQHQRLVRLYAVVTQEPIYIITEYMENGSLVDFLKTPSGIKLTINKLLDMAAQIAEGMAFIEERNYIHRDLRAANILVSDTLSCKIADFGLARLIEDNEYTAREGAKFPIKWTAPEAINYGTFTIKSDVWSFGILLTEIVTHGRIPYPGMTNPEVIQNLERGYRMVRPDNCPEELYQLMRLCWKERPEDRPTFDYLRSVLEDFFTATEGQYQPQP
UniProt Q99640, whole entry: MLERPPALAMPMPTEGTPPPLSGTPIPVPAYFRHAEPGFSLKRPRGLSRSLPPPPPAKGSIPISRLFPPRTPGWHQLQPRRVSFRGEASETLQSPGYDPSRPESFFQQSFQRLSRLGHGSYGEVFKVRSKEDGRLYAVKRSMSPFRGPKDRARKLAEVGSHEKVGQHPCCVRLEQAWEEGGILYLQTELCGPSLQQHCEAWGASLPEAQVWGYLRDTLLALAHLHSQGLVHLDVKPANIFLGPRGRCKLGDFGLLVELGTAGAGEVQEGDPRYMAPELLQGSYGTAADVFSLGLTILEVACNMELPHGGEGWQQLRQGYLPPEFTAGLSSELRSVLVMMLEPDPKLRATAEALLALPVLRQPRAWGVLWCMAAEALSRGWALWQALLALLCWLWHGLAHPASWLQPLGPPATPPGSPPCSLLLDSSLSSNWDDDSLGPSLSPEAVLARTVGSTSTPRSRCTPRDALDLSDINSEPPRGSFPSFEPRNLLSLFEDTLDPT

What was measured:
[1] = molecular target: LCK (Homo sapiens (Human), UniProt P06239); experiment: In vitro assay: kinase binding to immobilized ligand, captured kinase measured by qPCR; conditions: read-out: LCK (IC50 = nM)
[2] = molecular target: PKMYT1 (Homo sapiens (Human), UniProt Q99640); experiment: as above; conditions: read-out: PKMYT1 (IC50 = nM)

| IC50 [1] | IC50 [2] | Structure (SMILES) |
| --- | --- | --- |
| < 50 nM |  | Cc1ccc(O)c(C)c1-n1c(N)c(C(N)=O)c2cncc(C#N)c21 [Compound 587, 2-amino-7-cyano-1-(3-hydroxy-2,6-dimethylphenyl)-1H-pyrrolo[3,2-c]pyridine-3-carboxamide] |
| < 50 nM | < 50 nM | Cc1c(O)cc(F)c(C)c1-n1c(N)c(C(N)=O)c2cnc(C3CC3(C)C)nc21 (stereo not drawn) |
| < 50 nM | < 50 nM | Cc1c(O)cc(F)c(C)c1-n1c(N)c(C(N)=O)c2cncc(C#N)c21 |
| < 50 nM | < 50 nM | Cc1c(O)cc(F)c(C)c1-n1c(N)c(C(N)=O)c2cnc(C(F)(F)F)nc21 |
| < 50 nM | 100 to 1000 nM | Cc1c(O)cc(F)c(C)c1-n1c(N)c(C(N)=O)c2cnc(C3CC3)c(Br)c21 |
| < 50 nM | < 50 nM | Cc1c(O)cc(F)c(C)c1-n1c(N)c(C(N)=O)c2cnc(C[Si](C)(C)C)nc21 |
| > 1000 nM | > 1000 nM | Cc1ncc2c(C(N)=O)c(N)n(-c3c(C)cc4[nH]c(=O)[nH]c4c3C)c2n1 |
| 50 to 100 nM | 50 to 100 nM | Cc1ccc(O)c(C)c1-n1c(N)c(C(N)=O)c2cnc(C[Si](C)(C)C)nc21 |
